# Reference: PubChem BioAssay AID1865 (National Center for Advancing Translational Sciences (NCATS), 2009)
# Where “and” joins values, the source holds several entries; their conditions need not be identical. Equal entries are not always repeated. The list shows a part of the results, in another mix than the full data. Calls of active or inactive are those of the source. Calls come from the whole dose curve; as a rule, active = well fitted activation curve with a large enough effect; inconclusive = small, poorly fitted or top-dose-only effect; inactive = flat fitted curve, though single readings scatter.
# Assay: Quantitative High-Throughput Screen for Regulators of Epigenetic Control; note: % of control where 0% means no effect; nearly all actives have a fitted effect of over 60% in size
# Settings: murine LDR cells, GFP reporter derepression, 30 h
# Outline: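 GFP-positive cell count by laser-scanning cytometry (objects 20–120 um) after 30 h, 37 C compound exposure of murine LDR cells; reporter is CMV-GFP integrated at a silenced locus, inducible by HDAC or DNMT inhibitors.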
# [1] = at 53.9 µM (top of the series) unless noted
compound,measurement,setting,value
CN(C)C(=O)Oc1noc2ccccc12,GFP activation,[1],inactive: -1.06%
Cc1ccccc1OP(=O)(Nc1ccccn1)Oc1ccccc1C,GFP activation,[1],inactive: -2.41%
CCOC(=O)NC(Sc1ccccc1)C(Cl)(Cl)Cl (stereo unspecified),GFP activation,[1],inactive: -2.33%
Cc1ccc(NP(=O)(Oc2cccc(C)c2)Oc2cccc(C)c2)nc1,GFP activation,[1],inactive: 2.02%
c1ccc(-c2nn[nH]n2)c(-c2nn[nH]n2)c1,GFP activation,[1],inactive: -1.59%
CCNC(=S)/N=C(\N)N[N+](=O)[O-],GFP activation,[1],inactive: -1.28%
O=C(NC1CCS(=O)(=O)C1)NP(=S)(Oc1ccccc1)Oc1ccccc1 (stereo unspecified),GFP activation,[1],inactive: -1.63%
O=[N+]([O-])CC(O)c1ccc([N+](=O)[O-])cc1 (stereo unspecified),GFP activation,[1],inactive: 3.41%
NC(=O)Nc1ccc([As](=O)(O)O)cc1,GFP activation,at 16.9 µM (top of the series),inactive: 1.05%
same,GFP activation,at 53.9 µM (top of the series),inactive: 5.27%
CN(C(=O)Cc1ccccc1)[C@@H]1CC[C@]2(CCCO2)C[C@H]1N1CCCC1,GFP activation,[1],inactive: 1.11% and inactive: -1.22%
CCOP1(=S)c2c(C)nn(CCC#N)c2N=C(c2ccc(F)cc2)N1C (stereo unspecified),GFP activation,[1],inactive: -5.03%
O=[N+]([O-])c1ccc2c(c1)nnn2O,GFP activation,[1],inactive: 0.0207%
O=P(Nc1nccs1)(Oc1ccccc1)Oc1ccccc1,GFP activation,[1],inactive: -1.18%
O=P(Nc1nccs1)(c1ccccc1)c1nc2ccccc2s1 (stereo unspecified),GFP activation,[1],inactive: 3.17%
CCOP1(=S)c2c(C)nn(CCC#N)c2N=C(c2ccccc2F)N1C (stereo unspecified),GFP activation,[1],inactive: -1.08%
Nc1ccccc1[As](=O)(O)c1ccccc1,GFP activation,[1],inactive: 0%
O=C(O)COc1ccc([As](=O)(O)O)cc1[N+](=O)[O-],GFP activation,[1],inactive: 2.76%
Nc1cccc2c([As](=O)(O)O)cccc12,GFP activation,[1],inactive: 0%
Cc1ccc(NCCc2c([N+](=O)[O-])cc([N+](=O)[O-])cc2[N+](=O)[O-])cc1,GFP activation,[1],inactive: 1.32%
CCCOP(=S)(Nc1nc(N)cc(=O)[nH]1)OCCC,GFP activation,[1],inactive: -1.42%
CCOP(=O)(Nc1cccc2ccccc12)OCC,GFP activation,[1],inactive: 0.156%
COc1cc(C2NCCC3(OCCO3)C2(C)C)cc(OC)c1OC (stereo unspecified),GFP activation,[1],inactive: -0.917%
CN(C(=O)Cc1ccc(Cl)c(Cl)c1)[C@@H]1CC[C@]2(CCCO2)C[C@H]1N1CCCC1,GFP activation,[1],inactive: 0% and inactive: 1.22%
O=C(OC1CN2CCC1CC2)c1ccc(Cl)cc1 (stereo unspecified),GFP activation,[1],inactive: 2.45%
O=[As](O)(O)c1cccnc1,GFP activation,[1],inactive: -0.99%
COc1cc(C(=O)NCC2(N3CCOCC3)CCCCC2)cc(Cl)c1OC(C)C,GFP activation,[1],inactive: -6.78%
Cc1cccc(OCC(=O)OC2CN3CCC2CC3)c1 (stereo unspecified),GFP activation,[1],inactive: 0.153%
O=[As](O)(c1cccc(O)c1)c1cccc(O)c1,GFP activation,[1],inactive: 5.34%
CC(C)/C=N\N=C(\N)N[N+](=O)[O-],GFP activation,[1],inactive: -1.37%
CN(C(=O)Cc1ccc(Cl)c(Cl)c1)[C@@H]1CCCC[C@H]1N1CCCC1,GFP activation,[1],inactive: -1.82% and inactive: 0% and inactive: -0.167%
O=[As](O)(c1ccccc1Br)c1ccccc1Br,GFP activation,[1],inactive: 1.05%
O=P1(Nc2ccccn2)COc2ccccc2OC1,GFP activation,[1],inactive: -0.952%
CCOP(=O)(Nc1ccc(C)cn1)OCC,GFP activation,[1],inactive: -1.03%
CN(CCCl)Cc1cc(Cl)c(NC2=NCCN2)c(Cl)c1,GFP activation,[1],inactive: 5.26% and inactive: -0.144%
CC(C)(C)C(=O)NC(Sc1ncccn1)C(Cl)(Cl)Cl (stereo unspecified),GFP activation,[1],inactive: -1.73%
Clc1n[nH]nc1-c1nn[nH][15n]1,GFP activation,[1],inactive: 1.03%
O=P1(Nc2ncccn2)COc2ccccc2OC1,GFP activation,[1],inactive: -2.71%
Nc1cccc([As](=O)(O)c2ccccc2)c1,GFP activation,[1],inactive: 1.05%
O=[As](O)(c1cccs1)c1cccs1,GFP activation,[1],inactive: 0%
Cc1ccc(OCC(=O)OC2CN3CCC2CC3)cc1 (stereo unspecified),GFP activation,[1],inactive: 2.54%
O=P1(Nc2ccc(Br)cn2)COc2ccccc2OC1,GFP activation,[1],inactive: -0.0893%
CC1CCC(C(C)C)C(OP(=O)(Nc2ccccn2)c2ccccc2)C1 (stereo unspecified),GFP activation,[1],inactive: -0.816%
Cc1nn(-c2ccccc2)c2c1P(=O)(N1CCOCC1)N(C)C(c1ccccc1)=N2 (stereo unspecified),GFP activation,[1],inactive: -0.98%
CN(C)C1(CNC(=O)c2ccc(S(C)(=O)=O)cc2)CCCCC1,GFP activation,[1],inactive: 0.152%
O=C(/C=C/c1ccccc1)OC1CN2CCC1CC2 (stereo unspecified),GFP activation,[1],inactive: -0.281%
CCOC(=O)Nc1cccc([As](=O)(O)O)c1,GFP activation,[1],inactive: -6.09%
O=P(Nc1ccccn1)(c1cccc2ccccc12)c1cccc2ccccc12,GFP activation,[1],inactive: -0.805% [at 10.1 µM]
Cc1cc(SC(NC=O)C(Cl)(Cl)Cl)ncn1 (stereo unspecified),GFP activation,[1],inactive: 5.9%
O=[N+]([O-])c1ccc(Nc2ccc(Oc3ccc([N+](=O)[O-])cc3[N+](=O)[O-])cc2)c([N+](=O)[O-])c1,GFP activation,[1],inactive: 2.99%
CCOC(=O)Nc1ccc([As](=O)(O)O)c(O)c1,GFP activation,[1],inactive: 0%
Cc1cc(SC(NC(=O)c2ccccc2)C(Cl)(Cl)Cl)nc(C(C)C)n1 (stereo unspecified),GFP activation,[1],inactive: 0%
CCOC(=O)c1ccc(NC(=O)C(C)(CCl)SC)cc1 (stereo unspecified),GFP activation,[1],inactive: 1.05%
CCC(C)N(CC(C)C)C(=S)SC(NC(C)=O)C(Cl)(Cl)Cl (stereo unspecified),GFP activation,[1],inactive: -2.06%
COP1(=S)c2c(C)nn(CCC#N)c2N=C(c2ccc(F)cc2)N1C (stereo unspecified),GFP activation,[1],inactive: 1.08%
O=C(COc1ccccc1)OC1CN2CCC1CC2 (stereo unspecified),GFP activation,[1],inactive: -0.917%
COc1ccc(N/C(=N/P(=O)(N2CCOCC2)N2CCOCC2)N2CCOCC2)cc1,GFP activation,[1],inactive: 2.38%
Cc1c2c(nc3ccccc13)SC(C(Cl)Cl)C2 (stereo unspecified),GFP activation,[1],inactive: -0.99%
Cc1cc(=O)[nH]c(N[N+](=O)[O-])n1,GFP activation,[1],inactive: 0.0193%
O=C(OC1CN2CCC1CC2)C12CC3CC(CC(C3)C1)C2 (stereo unspecified),GFP activation,[1],inactive: 2.65%
COc1cc(I)ccc1[As](=O)(O)O,GFP activation,[1],inactive: 2.1%
COc1ccc2nc(NP(=O)(c3ccccc3)c3ccccc3)sc2c1,GFP activation,[1],inactive: -3.5%
ClCCSc1nnc(-c2cccnc2)o1,GFP activation,[1],inactive: 0%
CC(C)c1ccc(OP(=O)(Nc2ccccn2)Oc2ccccc2F)cc1 (stereo unspecified),GFP activation,[1],inactive: 1.08%
O=[N+]([O-])c1cc([N+](=O)[O-])c(-c2ccn[nH]2)s1,GFP activation,[1],inactive: -6.11%
CC(C)NC(=O)NP(=O)(Oc1ccccc1)Oc1ccccc1,GFP activation,[1],inactive: -1.63%
CCN(CC)C(=S)SC(NC=O)C(Cl)(Cl)Cl (stereo unspecified),GFP activation,[1],inactive: -1.08%
O=[As](O)(c1ccc(O)cc1)c1ccccc1O,GFP activation,[1],inactive: -0.99%
C[As](=O)(O)c1cccc(C(=O)O)c1,GFP activation,[1],inactive: 1.61%
Cc1ccc(OP(=O)(Nc2ccc([N+](=O)[O-])cn2)Oc2ccc(C)cc2)cc1,GFP activation,[1],inactive: 4.6%
Cc1ccc2nc3c(c(C)c2c1)CC(C(Cl)Cl)S3 (stereo unspecified),GFP activation,[1],inactive: 0%
